# MC4R antagonist: MC4R antagonists of cAMP signaling, primary screen, cell-based, TR-FRET, antagonist arm of biased-ligand search | Melanocortin receptor 4 (Homo sapiens), P32245 | MC4R-expressing cells, MTII-stimulated cAMP, LANCE TR-FRET | inhibition, % at 6.5 µM | 360,000 tested, 0.48% active | AID 540295, 2011;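 active = inhibition above its plate's cutoff, the mean of tested wells on that plate plus 3 SD, cut at about 29% in these data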;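 also: 0% = Melanotan II alone and 100% = Melanotan II plus saturating MCL0020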
#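 System: U2OS-MC4R stable cell line; Technique: Eu-cAMP/anti-cAMP TR-FRET, emission 671 nm; Repeats: single well per compound; Also added: Melanotan II; Dosing: one concentration, 6.5 µM nominal; Schedule: 30-min compound, 1-h challenge, 1-h detection, room temperature.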
# ASAP1 GAP inh: inhibitors of human ASAP1 ArfGAP activity, primary screen, biochemical, fluorescence polarization. inhibition, % at 16.5 µM. 360,000 tested, 0.19% active. Arf-GAP with SH3 domain, ANK repeat and PH domain-containing protein 1 (Homo sapiens), …. ASAP1-stimulated ARF1 GTP hydrolysis, GDP FP detection. AID 624377, 2012; in the data active = inhibition above about 25%;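 also: 0% = vehicle with enzyme and substrate and 100% = no enzyme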
# Yeast UUG start: modulators of start codon recognition fidelity in yeast. S. cerevisiae UUG-firefly luciferase reporter, luminescence/redox ratio. activity score, % at 18.7 µM. 350,000 tested, 0.13% active;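 active = replicate mean at a twofold rise or more, about +100% in these data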;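 note: firefly luciferase made from a UUG start codon reports start codon fidelity; reporter light over untreated wells divided by growth signal over untreated wells; some hits fall short of that in this replicate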
# ARFGAP1 inhibitor: inhibitors of rat ARFGAP1 GAP activity, primary screen, biochemical, fluorescence polarization, GDP tracer | AID 651572, 2012 | Arfgap1-stimulated ARF1 GTP hydrolysis, GDP FP detection | 360,000 tested, 0.26% active | inhibition, % at 16.5 µM | ADP-ribosylation factor GTPase-activating protein 1 (Rattus norvegicus), Q62848;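 active = inhibition above a per-plate limit, mean inhibition of low control wells plus 3 SD, cut at about 25% in these data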;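 also: 0% = DMSO wells with enzyme and 100% = wells lacking Arfgap1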
#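 System: truncated rat Arfgap1 GAP domain / Benchmarks: high control wells lacking Arfgap1, low control full reaction with DMSO / Times: compound-enzyme preincubation 20 min, reaction 120 min, detection 60 min, 25 °C / Repeats: one replicate per compound / Also added: human ARF1(Δ1-17)-GTP substrate / Measured by: Tracer-displacement fluorescence polarization with EDTA stop, 620/688 nm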
# NRP1-CendR mod: modulators of CendR peptide binding to NRP-1, primary screen, biochemical, fluorescence polarization, uHTS; Neuropilin-1 (Homo sapiens), O14786; FAM-RPARPAR peptide binding to NRP-1; inhibition, % at 25 µM; 360,000 tested, 0.85% active;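 active = inhibition or corrected inhibition above about 18%, plus a signal ratio from 0.5 to 1.5, limit read from the data, passing the limit was not always enough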
# MC4R barr agon: MC4R agonists recruiting beta-arrestin, primary screen, cell-based, luminescence, agonist arm of biased-ligand search. Melanocortin receptor 4 (Homo sapiens), P32245. U2OS MC4R beta-arrestin complementation; percent of melanotan II response, DMSO zero. activation, % at 8.9 µM. 360,000 tested, 0.98% active. AID 540308, 2011;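 active = activation above a per-plate cutoff, the mean activation of sample wells on that plate plus 3 SD, cut at about 8% in these data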
# MC4R barr conf: MC4R beta-arrestin agonists, retest, confirmation, cell-based, luminescence, U2OS. U2OS MC4R beta-arrestin recruitment; scaled DMSO 0%, Melanotan II 100%. 2,400 tested, 31% active. shares compounds with MC4R barr agon. AID 602192, 2012. activation, % at 8.9 µM;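 active = mean activation across replicates above the hit cutoff set in the earlier primary screen, cut at about 8% in these data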
# MOR-DOR barr ag: agonists of MOR-DOR heterodimerization, counter-screen for MC4R biased agonist project, cell-based, luminescence; shares compounds with MC4R barr agon; activation, % at 9.2 µM; U2OS PathHunter beta-arrestin, beta-gal luminescence; percent of deltorphin B response, DMSO zero; 2,400 tested, 5.8% active;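 active = mean activation across replicates exceeds the hit threshold derived in the earlier primary screen, cut at about 18% in these data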;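 also: 100% = deltorphin B at 0.9 µM final and 0% = DMSO alone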
# Starred values were filed as active, the others as inactive; . = no result. In the library only some 2.3% were active in any assay of this set; here they are far more common.
1. C[C@@H]1CCCCO[C@@H](CN(C)C(=O)Nc2ccccc2)[C@H](C)CN([C@@H](C)CO)C(=O)c2cc(NC(=O)CCC(F)(F)F)ccc2O1
2. COc1ccc(-c2ccc(/C=C3/C(=N)N4C(C)=CSC4=NC3=O)o2)c([N+](=O)[O-])c1
3. O=C(Nc1cccc(O)c1)c1cc2nc(-c3ccccc3)cc(-c3ccccc3)n2n1
4. O=C(NC1CCCC1)c1cc2nc(-c3ccccc3)cc(-c3ccccc3)n2n1
5. CCOc1ccc(C(=O)Nc2cc(C)on2)cc1
6. Cc1cc(NC(=O)c2cccc(COc3ccc(Br)cc3)c2)no1

Protein sequences, listed by entry. Tags and fused reporters are not part of them. Residues count along the entry.
Melanocortin receptor 4 (Homo sapiens), P32245, UniProt P32245, whole entry, looked up: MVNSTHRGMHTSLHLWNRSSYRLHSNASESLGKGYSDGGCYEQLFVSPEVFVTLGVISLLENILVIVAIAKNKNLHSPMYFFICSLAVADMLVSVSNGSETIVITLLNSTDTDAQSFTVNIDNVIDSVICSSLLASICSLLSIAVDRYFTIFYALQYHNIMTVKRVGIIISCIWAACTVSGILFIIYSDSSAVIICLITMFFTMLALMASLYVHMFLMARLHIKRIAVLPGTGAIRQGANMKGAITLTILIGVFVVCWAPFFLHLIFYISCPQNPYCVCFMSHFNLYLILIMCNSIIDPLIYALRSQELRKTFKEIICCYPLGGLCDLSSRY
ADP-ribosylation factor GTPase-activating protein 1 (Rattus norvegicus), Q62848, UniProt Q62848, whole entry, looked up: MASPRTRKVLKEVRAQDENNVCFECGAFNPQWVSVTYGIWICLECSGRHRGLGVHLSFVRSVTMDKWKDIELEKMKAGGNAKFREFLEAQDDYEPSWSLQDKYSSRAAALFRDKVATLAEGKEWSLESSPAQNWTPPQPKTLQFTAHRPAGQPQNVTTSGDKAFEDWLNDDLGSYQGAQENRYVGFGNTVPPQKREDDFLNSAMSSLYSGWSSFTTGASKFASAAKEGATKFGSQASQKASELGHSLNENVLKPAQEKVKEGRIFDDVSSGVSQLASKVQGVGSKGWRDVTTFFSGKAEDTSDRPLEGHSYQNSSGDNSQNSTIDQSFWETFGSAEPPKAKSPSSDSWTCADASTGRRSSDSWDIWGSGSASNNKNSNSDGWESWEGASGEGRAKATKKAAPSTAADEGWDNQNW
ADP-ribosylation factor GTPase-activating protein 1 (Rattus norvegicus), Q62848, UniProt Q62848, 1-136 limits assumed: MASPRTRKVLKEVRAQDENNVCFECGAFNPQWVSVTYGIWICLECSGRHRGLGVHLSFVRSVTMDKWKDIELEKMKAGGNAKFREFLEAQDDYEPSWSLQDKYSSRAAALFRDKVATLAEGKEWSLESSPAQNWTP
Neuropilin-1 (Homo sapiens), O14786, UniProt O14786, whole entry, looked up: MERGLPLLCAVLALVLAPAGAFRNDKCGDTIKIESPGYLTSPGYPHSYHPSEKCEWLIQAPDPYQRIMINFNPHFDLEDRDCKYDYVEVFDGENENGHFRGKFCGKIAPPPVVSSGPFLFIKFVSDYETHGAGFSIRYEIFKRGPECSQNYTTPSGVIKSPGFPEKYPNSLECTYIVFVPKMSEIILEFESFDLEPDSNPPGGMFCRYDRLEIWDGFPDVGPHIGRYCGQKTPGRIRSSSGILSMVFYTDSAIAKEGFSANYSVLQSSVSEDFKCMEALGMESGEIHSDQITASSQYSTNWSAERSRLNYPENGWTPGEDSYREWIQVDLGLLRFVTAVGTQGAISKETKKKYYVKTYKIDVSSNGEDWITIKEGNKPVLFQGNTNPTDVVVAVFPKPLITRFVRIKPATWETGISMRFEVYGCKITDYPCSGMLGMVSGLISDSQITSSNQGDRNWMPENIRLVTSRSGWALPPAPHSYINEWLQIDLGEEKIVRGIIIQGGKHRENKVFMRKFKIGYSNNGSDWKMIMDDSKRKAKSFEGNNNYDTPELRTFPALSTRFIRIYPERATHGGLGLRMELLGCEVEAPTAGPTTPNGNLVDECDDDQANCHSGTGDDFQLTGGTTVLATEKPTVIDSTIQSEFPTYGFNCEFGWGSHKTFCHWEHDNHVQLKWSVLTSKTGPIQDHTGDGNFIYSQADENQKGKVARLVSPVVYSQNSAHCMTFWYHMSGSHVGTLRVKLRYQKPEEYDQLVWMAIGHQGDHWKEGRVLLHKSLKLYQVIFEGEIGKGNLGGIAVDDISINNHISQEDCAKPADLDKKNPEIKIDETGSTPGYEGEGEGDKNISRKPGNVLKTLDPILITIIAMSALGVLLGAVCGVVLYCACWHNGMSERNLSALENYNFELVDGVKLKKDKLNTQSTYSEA

Compound | 1 | 2 | 3 | 4 | 5 | 6
MC4R antagonist | . | 8 | 16 | 11 | -5 | -7
ASAP1 GAP inh | . | -3 | -18 | -9 | 11 | 3
Yeast UUG start | 7 | . | . | -19 | -14 | -15
ARFGAP1 inhibitor | . | 7 | 8 | 0 | 10 | 14
NRP1-CendR mod | . | -31 | 5 | -4 | -3 | 2
MC4R barr agon | . | 61* | 12* | -1 | -4 | 12*
MC4R barr conf | . | -2 | 8 | . | . | 12*
MOR-DOR barr ag | . | 3 | 5 | . | . | 4

7. O=C(NNc1nc2ccccc2s1)Nc1ccc(F)cc1
8. O=C(CN1c2ccccc2Sc2ccccc21)NNC(=O)Nc1ccc(Cl)c(Cl)c1
9. O=C(NNc1nc2ccccc2s1)Nc1ccc(Cl)c(Cl)c1
10. CC(C)NC(=O)N(C)C[C@@H]1Oc2c(NC(=O)C3CCOCC3)cccc2C(=O)N([C@H](C)CO)C[C@@H]1C
11. CCc1ccc(OCCNc2cc(N3CCNC(C)C3)ccc2[N+](=O)[O-])cc1 (stereo unspecified)
12. CC1CN(c2ccc([N+](=O)[O-])c(NCCOc3ccc(Cl)cc3)c2)CC(C)N1 (stereo unspecified)

Compound | 7 | 8 | 9 | 10 | 11 | 12
MC4R antagonist | -9 | 5 | 20 | . | -3 | -10
ASAP1 GAP inh | -9 | 11 | 12 | . | 2 | 5
Yeast UUG start | . | -25 | . | 20 | -8 | -10
ARFGAP1 inhibitor | -6 | 13 | 10 | . | 8 | 0
NRP1-CendR mod | 4 | 4 | 5 | . | -20 | -5
MC4R barr agon | 2 | 23* | 16* | . | 11* | 1
MC4R barr conf | . | 6 | 9.2* | . | 23* | .
MOR-DOR barr ag | . | 1 | 10 | . | 17 | .

13. C[C@@H]1CN([C@@H](C)CO)C(=O)c2cccc(NC(=O)c3ccc(-c4nccs4)cc3)c2O[C@H]1CN(C)C(=O)Nc1ccc(C(F)(F)F)cc1
14. COc1ccc(CCn2c(C)cc(C(=O)CSc3nnnn3-c3ccccc3)c2C)cc1OC
15. CCN1CCN(Cc2ccc(NC(=O)c3ccc(C)c(NC(=O)C(=O)c4c[nH]c5ccccc45)c3)cc2C(F)(F)F)CC1
16. O=C(Nc1ccccc1)Nc1cc(Cl)cc(Cl)c1
17. O=C(Nc1ccccc1)Nc1cc(OCC(F)(F)F)cc(OCC(F)(F)F)c1
18. O=C(Nc1ccc(OC(F)(F)C(F)F)c(NC(=O)c2ccc(F)cc2)c1)c1ccc(F)cc1

Compound | 13 | 14 | 15 | 16 | 17 | 18
MC4R antagonist | . | 0 | 7 | 8 | 17 | 6
ASAP1 GAP inh | . | -4 | 10 | 16 | 22 | -4
Yeast UUG start | 3 | -4 | 35 | -13 | . | -3
ARFGAP1 inhibitor | . | 9 | 11 | 11 | 9 | 12
NRP1-CendR mod | . | -3 | -12 | 3 | -2 | 15
MC4R barr agon | . | 17* | 22* | 1 | 10* | 12*
MC4R barr conf | . | 8 | 21* | . | 2 | 1
MOR-DOR barr ag | . | 4 | 10 | . | 8 | 4

19. Cc1cccc(OCC(=O)NNC(=O)Nc2cccc(Cl)c2)c1C
20. Cc1cccc(C)c1OCC(=O)Nc1cccc(-c2nnc(-c3ccccc3)o2)c1
21. CCC(=O)Nc1cccc(-c2nc3ccccc3o2)c1
22. COc1ccc(OCC(=O)NNC(=O)Nc2cccc(Cl)c2)cc1
23. COc1ccccc1OCC(=O)Nc1cccc(-c2nc3ccccc3o2)c1
24. Cc1cccc(OCC(=O)Nc2cccc(-c3nnc(-c4ccccc4)o3)c2)c1C

Compound | 19 | 20 | 21 | 22 | 23 | 24
MC4R antagonist | -1 | 17 | -5 | 10 | 9 | 7
ASAP1 GAP inh | 7 | 5 | 2 | 6 | -1 | -13
Yeast UUG start | -9 | -17 | -8 | -18 | . | -14
ARFGAP1 inhibitor | 4 | 9 | 1 | 8 | -2 | 3
NRP1-CendR mod | -6 | -8 | -6 | 4 | 0 | 2
MC4R barr agon | 10* | 0 | -2 | -1 | 15* | 30*
MC4R barr conf | 4 | . | . | . | 5 | 15*
MOR-DOR barr ag | 5 | . | . | . | 3 | 12

# 4 of these compounds in another layout.
# Each structure is followed by: MC4R antagonist	ASAP1 GAP inh	Yeast UUG start	ARFGAP1 inhibitor	NRP1-CendR mod	MC4R barr agon	MC4R barr conf	MOR-DOR barr ag
20) Cc1cccc(C)c1OCC(=O)Nc1cccc(-c2nnc(-c3ccccc3)o2)c1
→ 17	5	-17	9	-8	0	.	.
24) Cc1cccc(OCC(=O)Nc2cccc(-c3nnc(-c4ccccc4)o3)c2)c1C
→ 7	-13	-14	3	2	30*	15*	12
23) COc1ccccc1OCC(=O)Nc1cccc(-c2nc3ccccc3o2)c1
→ 9	-1	.	-2	0	15*	5	3
19) Cc1cccc(OCC(=O)NNC(=O)Nc2cccc(Cl)c2)c1C
→ -1	7	-9	4	-6	10*	4	5

# More records
25. COc1ccccc1C(=O)Nc1ccc2oc(-c3ccc(F)cc3)nc2c1
26. CC(C)NC(=O)N(C)C[C@H]1Oc2c(NS(=O)(=O)c3cn(C)cn3)cccc2C(=O)N([C@@H](C)CO)C[C@H]1C
27. CO[C@@H]1CN(C)C(=O)c2cc(NC(=O)C3CC3)ccc2OC[C@H](C)N(C(=O)c2cnccn2)C[C@@H]1C
28. O=C(/C=C/c1ccc(OC(F)F)cc1)OCC(=O)N1CCc2ccccc21
29. CCCC#Cc1ccc2c(c1)O[C@@H](CN(C)C(=O)c1ccccc1)[C@@H](C)CN([C@H](C)CO)S2(=O)=O
30. COc1cc(C(=O)Nc2nnc(-c3sccc3C)s2)cc(OC)c1OC

Compound | 25 | 26 | 27 | 28 | 29 | 30
MC4R antagonist | 4 | . | . | 3 | . | 8
ASAP1 GAP inh | -2 | . | . | -4 | . | 3
Yeast UUG start | -4 | -9 | -1 | 1 | 13 | -12
ARFGAP1 inhibitor | -6 | . | . | -7 | . | 2
NRP1-CendR mod | -3 | . | . | -8 | . | -13
MC4R barr agon | 18* | . | . | 13* | . | 12*
MC4R barr conf | 6 | . | . | 2 | . | 23*
MOR-DOR barr ag | 2 | . | . | 6 | . | 8

31. CCOCc1nnc(NC(=O)c2cc(OC)c(OC)c(OC)c2)s1
32. COc1cc2c(-c3ccccc3O)nc3c(c(C)nn3-c3ccccc3)c2cc1OC
33. COC(=O)c1cc(C)nc2c1c(C)nn2-c1ccccc1
34. C[C@@H]1CN([C@@H](C)CO)C(=O)Cc2cc(NS(=O)(=O)c3cccs3)ccc2O[C@H]1CN(C)Cc1ccc(Cl)c(Cl)c1
35. CC(C)NC(=O)Nc1ccc2c(c1)C(=O)N([C@H](C)CO)C[C@@H](C)[C@H](CN(C)S(C)(=O)=O)OCCCC[C@H](C)O2

Compound | 31 | 32 | 33 | 34 | 35
MC4R antagonist | -7 | 4 | -4 | . | .
ASAP1 GAP inh | 9 | -5 | 6 | . | .
Yeast UUG start | -7 | -20 | -1 | 5 | 3
ARFGAP1 inhibitor | 0 | -13 | -7 | . | .
NRP1-CendR mod | 5 | 33* | -8 | . | .
MC4R barr agon | 1 | 11* | 3 | . | .
MC4R barr conf | . | 3 | . | . | .
MOR-DOR barr ag | . | 20* | . | . | .

# Assay outcomes deposited in PubChem by several laboratories.
